# From patent US4689339A, “4-dihydroinden-2-yl-, 4-tetrahydronaphth-2-yl-, and 4-dihydrobenzofuran-2-ylimidazoles, useful to block α2 -adrenergic receptors” (Farmos Yhtyma oy, priority 1984, dated 1987)
# The chains behind the UniProt entries cited, without tags or fusion partners.
# UniProt P22909, whole entry: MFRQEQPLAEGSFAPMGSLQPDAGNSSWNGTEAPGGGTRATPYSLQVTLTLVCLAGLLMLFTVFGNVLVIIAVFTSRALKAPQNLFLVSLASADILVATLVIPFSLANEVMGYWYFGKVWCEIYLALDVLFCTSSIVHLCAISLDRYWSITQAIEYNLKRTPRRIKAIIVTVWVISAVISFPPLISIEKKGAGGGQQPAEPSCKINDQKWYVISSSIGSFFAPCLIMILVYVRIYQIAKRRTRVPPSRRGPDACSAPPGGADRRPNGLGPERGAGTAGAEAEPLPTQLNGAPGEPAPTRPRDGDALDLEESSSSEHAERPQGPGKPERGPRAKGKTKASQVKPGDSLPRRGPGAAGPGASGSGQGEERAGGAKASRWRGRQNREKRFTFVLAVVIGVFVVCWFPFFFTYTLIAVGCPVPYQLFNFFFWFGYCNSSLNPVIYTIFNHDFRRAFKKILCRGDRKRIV
# Target: T1, α2-receptors of the central nervous system (Rattus norvegicus, UniProt P22909)
# T1 construct: In anaesthetized rat, a standard dose of detomidine was administered intravenously; from tissue; host or cells: whole anaesthetized rat, in vivo (central nervous system)
# Assay: α2-antagonism in vivo, reversal of detomidine-induced mydriasis in anaesthetized rat
# Settings: iv, read-out: ED50, 50 percent reversal of detomidine-induced mydriasis
# Method: The central α2 -blocking effect of the studied substances under in vivo conditions was studied using two methods. First, it is known that in the rat α2 -agonists induce dilatation of the pupil (mydriasis) which effect is transmitted via α2 -receptors of the central nervous system. In anaesthetized rat, a standard dose of detomidine was administered intravenously. Thereafter increasing doses of the studied antagonist were injected intravenously and the reversal of detomidine-induced mydriasis was followed. The ED50 value of the antagonist, i.e. the dose producing a 50 percent reversal, was determined.
row,Compound,ED50 [µg/kg]
1,CCC1(c2cnc[nH]2)Cc2ccccc2C1 [Compound XV],6
2,COc1cc2nc(N3CCN(C(=O)c4ccco4)CC3)nc(N)c2cc1OC [Prazosin],> 1000
